Measurements published in article PMC6522524 (Nature Communications, 2019).

The chains behind the UniProt entries cited, without tags or fusion partners. Residues count along the entry.
UniProt P03146, 1-149: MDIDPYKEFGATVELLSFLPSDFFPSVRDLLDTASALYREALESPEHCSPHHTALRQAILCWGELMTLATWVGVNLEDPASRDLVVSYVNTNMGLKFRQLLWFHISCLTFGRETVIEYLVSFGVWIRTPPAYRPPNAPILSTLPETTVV

How the values were obtained:
[1] = molecular target: T1, Cp149 (truncated HBV core protein) (Hepatitis B virus genotype D subtype ayw, UniProt P03146); format: biochemical; details: read-out: IC50, in vitro HBV capsid (core) assembly
T1 construct: Cp149 (amino acids 1–149) is a truncated form of the HBV core protein; made in house; host or cells: Escherichia coli

[2] = ref https://www.drugbank.ca/; cited from earlier work

Row | Substance | IC50 [1] [nM] | pKa value (acidic) [2] | pKa value (basic) [2]
1 | GLS-4 | 437 ± 6 | – | –
2 | L-Adrenaline | – | 9.69 | 8.91
